Like-named read-outs stand apart in the source and are kept apart here.
Target: C-Raf FL (full-length C-Raf protein, Y340E and Y341E activating mutations) (Homo sapiens (Human), UniProt P04049, Y340E/Y341E)
Format: biochemical
Conditions: read-out: c-Raf FL IC-50
[1] = AlphaScreen, 60 min pre-incubation, 1 hour reaction

Protein sequences, listed by entry. Tags and fused reporters are not part of them.
UniProt P04049, whole entry Y340E/Y341E: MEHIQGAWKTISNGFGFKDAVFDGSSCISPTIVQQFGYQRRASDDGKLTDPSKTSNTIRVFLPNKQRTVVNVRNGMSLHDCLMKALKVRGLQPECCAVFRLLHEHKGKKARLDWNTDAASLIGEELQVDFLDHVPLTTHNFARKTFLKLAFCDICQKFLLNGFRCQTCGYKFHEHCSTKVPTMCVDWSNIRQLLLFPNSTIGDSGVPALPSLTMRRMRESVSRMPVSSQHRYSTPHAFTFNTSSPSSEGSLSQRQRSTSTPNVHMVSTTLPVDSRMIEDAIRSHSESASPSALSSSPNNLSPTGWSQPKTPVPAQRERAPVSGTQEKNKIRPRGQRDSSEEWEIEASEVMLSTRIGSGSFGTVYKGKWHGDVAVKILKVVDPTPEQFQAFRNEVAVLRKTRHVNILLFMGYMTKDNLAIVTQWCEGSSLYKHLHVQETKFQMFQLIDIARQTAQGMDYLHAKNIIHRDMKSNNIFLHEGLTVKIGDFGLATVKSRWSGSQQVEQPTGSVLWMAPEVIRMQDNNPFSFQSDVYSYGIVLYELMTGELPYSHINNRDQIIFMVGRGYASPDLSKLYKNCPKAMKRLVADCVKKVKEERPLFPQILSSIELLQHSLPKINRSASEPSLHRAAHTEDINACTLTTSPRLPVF

SMILES | IC50 [1] [nM] | IC50 [nM]
CCOc1nnc(-c2cc(NC(=O)c3cccc(S(C)(=O)=O)c3)cnc2C)cc1N1CCOCC1 [Example 618, N-(5-(6-ethoxy-5-morpholinopyridazin-3-yl)-6-methylpyridin-3-yl)-3-(methylsulfonyl)benzamide] | 4.4 | –
CCOc1nnc(-c2cc(NC(=O)c3ccnc(C(C)(F)F)c3)cnc2C)cc1N1CCOCC1 [Example 620, 2-(1,1-difluoroethyl)-N-(5-(6-ethoxy-5-morpholinopyridazin-3-yl)-6-methylpyridin-3-yl)isonicotinamide] | 0.5 | –
CCOc1nnc(-c2cc(NC(=O)c3ccnc(C(C)C)c3)cnc2C)cc1N1CCOCC1 [Example 621, N-(5-(6-ethoxy-5-morpholinopyridazin-3-yl)-6-methylpyridin-3-yl)-2-isopropylisonicotinamide] | 0.7 | –
CCOc1nnc(-c2cc(NC(=O)c3cccc(C(F)(F)F)c3)cnc2C)cc1N1CCOC[C@H]1C [Example 622, (R)—N-(5-(6-ethoxy-5-(3-methylmorpholino)pyridazin-3-yl)-6-methylpyridin-3-yl)-3-(trifluoromethyl)benzamide] | 1.2 | –
CCOc1nnc(-c2cc(NC(=O)c3ccnc(C(C)(C)C#N)c3)cnc2C)cc1N1CCOC[C@H]1C [Example 623, (R)-2-(2-cyanopropan-2-yl)-N-(5-(6-ethoxy-5-(3-methylmorpholino)pyridazin-3-yl)-6-methylpyridin-3-yl)isonicotinamide] | 9.3 | –
CCOc1nnc(-c2cc(NC(=O)c3ccnc(C(C)(C)C#N)c3)ccc2C)cc1N1CCOC[C@H]1C [Example 624, (R)-2-(2-cyanopropan-2-yl)-N-(3-(6-ethoxy-5-(3-methylmorpholino)pyridazin-3-yl)-4-methylphenyl)isonicotinamide] | 1.5 | –
CCOc1nnc(-c2cc(NC(=O)c3ccc(CNC)c(C(F)(F)F)c3)cnc2C)cc1N1CCOCC1 [Example 626, N-(5-(6-ethoxy-5-morpholinopyridazin-3-yl)-6-methylpyridin-3-yl)-4-((methylamino)methyl)-3-(trifluoromethyl)benzamide] | 3.8 | –
CCOc1nnc(-c2cc(NC(=O)c3ccc(CO)c(C(F)(F)F)c3)cnc2C)cc1N1CCOCC1 [Example 627, N-(5-(6-ethoxy-5-morpholinopyridazin-3-yl)-6-methylpyridin-3-yl)-4-(hydroxymethyl)-3-(trifluoromethyl)benzamide] | 1.1 | –
Cc1ncc(NC(=O)c2cc(C(F)(F)F)ccn2)cc1-c1cc(N2CCOCC2)c(OC2CCOCC2)nn1 [Example 629, N-(6-methyl-5-(5-morpholino-6-((tetrahydro-2H-pyran-4-yl)oxy)pyridazin-3-yl)pyridin-3-yl)-4-(trifluoromethyl)picolinamide] | 0.4 | –
Cc1ncc(NC(=O)c2ccnc(C(C)(C)F)c2)cc1-c1cc(N2CCOCC2)c(OC2CCOCC2)nn1 [Example 630, 2-(2-fluoropropan-2-yl)-N-(6-methyl-5-(5-morpholino-6-((tetrahydro-2H-pyran-4-yl)oxy)pyridazin-3-yl)pyridin-3-yl)isonicotinamide] | 0.8 | –
Cc1ncc(NC(=O)c2cnnc(C(F)(F)F)c2)cc1-c1cc(N2CCOCC2)c(OC2CCOCC2)nn1 [Example 631, N-(6-methyl-5-(5-morpholino-6-((tetrahydro-2H-pyran-4-yl)oxy)pyridazin-3-yl)pyridin-3-yl)-6-(trifluoromethyl)pyridazine-4-carboxamide] | 0.8 | –
Cc1ncc(NC(=O)c2ccnc(S(C)(=O)=O)c2)cc1-c1cc(N2CCOCC2)c(OC2CCOCC2)nn1 [Example 632, N-(6-methyl-5-(5-morpholino-6-((tetrahydro-2H-pyran-4-yl)oxy)pyridazin-3-yl)pyridin-3-yl)-2-(methylsulfonyl)isonicotinamide] | 1.8 | –
Cc1ncc(NC(=O)c2ccnc(C(C)(C)C#N)c2)cc1-c1cc(N2CCOCC2)c(OC2CCOCC2)nn1 [Example 633, 2-(2-cyanopropan-2-yl)-N-(6-methyl-5-(5-morpholino-6-((tetrahydro-2H-pyran-4-yl)oxy)pyridazin-3-yl)pyridin-3-yl)isonicotinamide] | 2.2 | –
Cc1ncc(NC(=O)c2ccnc(C(C)(C)O)c2)cc1-c1cc(N2CCOCC2)c(OC2CCOCC2)nn1 [Example 634, 2-(2-hydroxypropan-2-yl)-N-(6-methyl-5-(5-morpholino-6-((tetrahydro-2H-pyran-4-yl)oxy)pyridazin-3-yl)pyridin-3-yl)isonicotinamide] | 3.6 | –
Cc1ncc(NC(=O)c2cccc(C(F)(F)F)c2)cc1-c1cc(N2CCOCC2)c(OC2CCOCC2)nn1 [Example 636, N-(6-methyl-5-(5-morpholino-6-((tetrahydro-2H-pyran-4-yl)oxy)pyridazin-3-yl)pyridin-3-yl)-3-(trifluoromethyl)benzamide] | – | 0.4
Cc1ccc(NC(=O)c2cccc(C(C)(C)S(C)(=O)=O)c2)cc1-c1cc(N2CCOCC2)c(=O)n(C)n1 [Example 637, N-(4-methyl-3-(1-methyl-5-morpholino-6-oxo-1,6-dihydropyridazin-3-yl)phenyl)-3-(2-(methylsulfonyl)propan-2-yl)benzamide] | 5.5 | –
Cc1ccc(NC(=O)c2ccnc(C(C)(C)O)c2)cc1-c1cc(N2CCOCC2)c(=O)n(C)n1 [Example 638, 2-(2-hydroxypropan-2-yl)-N-(4-methyl-3-(1-methyl-5-morpholino-6-oxo-1,6-dihydropyridazin-3-yl)phenyl)isonicotinamide] | 2.1 | –
Cc1ccc(NC(=O)c2cccc(-c3nnco3)c2)cc1-c1cc(N2CCOCC2)c(=O)n(C)n1 [Example 639, N-(4-methyl-3-(1-methyl-5-morpholino-6-oxo-1,6-dihydropyridazin-3-yl)phenyl)-3-(1,3,4-oxadiazol-2-yl)benzamide] | 1.4 | –
Cc1ccc(NC(=O)c2ccnc(C(C)(C)C#N)c2)cc1-c1cc(N2CCOCC2)c(=O)n(C)n1 [Example 640, 2-(2-cyanopropan-2-yl)-N-(4-methyl-3-(1-methyl-5-morpholino-6-oxo-1,6-dihydropyridazin-3-yl)phenyl)isonicotinamide] | 1.1 | –
CCn1cc(C(=O)Nc2ccc(C)c(-c3cc(N4CCOCC4)c(=O)n(C)n3)c2)cc(C(F)(F)F)c1=O [Example 641, 1-ethyl-N-(4-methyl-3-(1-methyl-5-morpholino-6-oxo-1,6-dihydropyridazin-3-yl)phenyl)-6-oxo-5-(trifluoromethyl)-1,6-dihydropyridine-3-carboxamide] | 0.7 | –
CCc1cc(C(=O)Nc2ccc(C)c(-c3cc(N4CCOCC4)c(=O)n(C)n3)c2)ccn1 [Example 642, 2-ethyl-N-(4-methyl-3-(1-methyl-5-morpholino-6-oxo-1,6-dihydropyridazin-3-yl)phenyl)isonicotinamide] | 0.4 | –
CCC(F)(F)c1cc(C(=O)Nc2ccc(C)c(-c3cc(N4CCOCC4)c(=O)n(C)n3)c2)ccn1 [Example 643, 2-(1,1-difluoropropyl)-N-(4-methyl-3-(1-methyl-5-morpholino-6-oxo-1,6-dihydropyridazin-3-yl)phenyl)isonicotinamide] | 0.3 | –
Cc1ccc(NC(=O)c2cnnc(C3CC3)c2)cc1-c1cc(N2CCOCC2)c(=O)n(C)n1 [Example 644, 6-cyclopropyl-N-(4-methyl-3-(1-methyl-5-morpholino-6-oxo-1,6-dihydropyridazin-3-yl)-phenyl)pyridazine-4-carboxamide] | 0.9 | –

Reference: patent publication US9694016B2 (Novartis AG, priority 2013, dated 2017)
